Earlier results in patent publication US7888385B2, “Airway alkalinization as therapy for airway diseases” (priority 2002, dated 2011).

Details: cited from earlier work

In the case of “3-(Cyclohexamino)-1-propanesulphonic acid”, the pKa is given as 10.5.
